Here are results for one molecule from publication PMC8957250 (ADMET & DMPK, 2019).

The structures appear in SMILES notation.

For data set [1] the following is noted: Rat (0.25 kg), Experimental; rat plasma incubation, Lineweaver-Burke plot.
A short description of a further data set: in vitro. The following applies: rat, pH 7.4.

As usually defined, the Km is the concentration of substrate that gives half-maximal velocity. Turning to `CCOC(=O)C1=C[C@@H](OC(CC)CC)[C@H](NC(C)=O)[C@@H](N)C1` [OP, oseltamivir phosphate], the “Vmax of OP metabolism” value in data set [1] is 61.2 mg/h. Also, the Km at 1 h in the data set “in vitro” was 300 µg/mL.
